Measurements taken from paper PMC9865957, “^68Ga-HBED-CC-WL-12 PET in Diagnosing and Differentiating Pancreatic Cancers in Murine Models” (Pharmaceuticals, 2023).

Test system: PANC02 tumors
Conditions: mouse, in vivo, iv
Experimental: C57BL/6 female mice were obtained from Shanghai Lingchang Biotechnology Co., LTD, Shanghai, China. The animals were kept in the Animal Experiment Center of Shanghai Changhai Hospital of SPF level. Then, 1 × 10^6 PANC02 cells in 0.1 mL mixture of PBS and Matrigel at a 1:1 ratio was inoculated subcutaneous into the right trunk of the mice. When the tumor reached an average volume of 300–500 mm^3, in vivo experiments of tracer metabolism were performed.
All imaging acquisition was performed on a clinical PET-CT scanner (Biograph64, Siemens Healthcare, Erlangen, Germany). Before imaging, the model mice were injected with 50 μL sodium pentobarbital (3%) into the abdominal cavity for anesthesia. […] For quantification of tracer uptake, 3D regions of interest (ROI) were drawn on the muscle, liver, and tumor.

tumor SUVmax: 0.32 ± 0.03
tumor-to-liver (T/L) ratio: 2.30 ± 0.49
tumor-to-muscle (T/M) ratio: 8.22 ± 0.19
Substance: ^18F-FDG [reference compound]
